Laboratory results reported in US20170253656A1.

target: CD74 on CD74 positive SU-DHL-6 cells, P04233; assay: cell-based or functional assay

Binder	2nd ADC Cell Killing IC50 [nM]
1445-A03 paired with trastuzumab light chain (Fab) VH: EVQLVESGGGLVQPGGSLRLSCAASGFNISGYYIHWVRQAPGKGLEWVAEISPTGGYTYYADSVKGRFTISADTSKNTAYLQMNSLRAEDTAVYYCAREHGLVYGQPMDYWGQGTLVTVSS light: DIQMTQSPSSLSASVGDRVTITCRASQDVNTAVAWYQQKPGKAPKLLIYSASFLYSGVPSRFSGSRSGTDFTLTISSLQPEDFATYYCQQHYTTPPTFGQGTKVEIK	0.7
1445-B09 paired with trastuzumab light chain (Fab) VH: EVQLVESGGGLVQPGGSLRLSCAASGFNITGTGIHWVRQAPGKGLEWVGIITPYNGTTNYADSVKGRFTISADTSKNTAYLQMNSLRAEDTAVYYCARGGYGYYYPPFDYWGQGTLVTVSS light: DIQMTQSPSSLSASVGDRVTITCRASQDVNTAVAWYQQKPGKAPKLLIYSASFLYSGVPSRFSGSRSGTDFTLTISSLQPEDFATYYCQQHYTTPPTFGQGTKVEIK	0.45
1198-A01 paired with trastuzumab LC (Fab) VH: EVQLVESGGGLVQPGGSLRLSCAASGFTFSDYDMSWVRQAPGKGLEWVGFIAQDGSYKYYVDSVKGRFTISRDNAKNSLYLQMNSLRAEDTAVYYCARSKLFRAGQFDYWGQGTLVTVSS light: DIQMTQSPSSLSASVGDRVTITCRASQDVNTAVAWYQQKPGKAPKLLIYSASFLYSGVPSRFSGSRSGTDFTLTISSLQPEDFATYYCQQHYTTPPTFGQGTKVEIK	280
1198-D04 paired with trastuzumab LC (Fab) VH: EVQLVESGGGLVQPGGSLRLSCAASGFNINNYDIHWVRQAPGKGLEWVANIDPYNGTTYYADSVKGRFTISADTSKNTAYLQMNSLRAEDTAVYYCARVPWGFWAPFDYWGQGTLVTVSS light: DIQMTQSPSSLSASVGDRVTITCRASQDVNTAVAWYQQKPGKAPKLLIYSASFLYSGVPSRFSGSRSGTDFTLTISSLQPEDFATYYCQQHYTTPPTFGQGTKVEIK	187
